Test system: D-type HBV
Assay: Single drug in vitro antiviral activity in HBV-infected PHH (HBV DNA qPCR, HBeAg and HBsAg ELISA)
Format: cell-based, Hepatitis B Virus
Text: Experimental objective: The purpose of this study was to evaluate the in vitro anti-hepatitis B virus efficacy of the test compounds in combination with TAF (tenofovir alafenamide fumarate) and Peg-IFN-α2a (peginterferon α 2a) using human primary hepatocytes (PHH) isolated from a humanized FRG mouse model.
1. The PHH model was used to evaluate the single drug in vitro antiviral activity of the test compound
On day 0, primary human hepatocytes were resuscitated and plated into two 48-well plates (1.32×10^5 cells/well).
On day 1, HBV was added to infect PHH (2000 GE/cell). Two kinds of compound treatment methods were set up: One cell plate was treated with the test compound and Peg-IFNα-2a for four hours on day 1, and then the medium was then replaced with an HBV-containing medium to infect cells (at the same time, compounds were added to continue treatment); another plate was treated with test compound and Peg-IFNα-2a started on day 2. Fresh medium with compound was replaced every 1 to 2 days.
The final concentration of DMSO in the medium was 2%. The initial concentration of the test compound was 1000 nM, and the initial concentration of the control compound Peg-IFNα-2a was 500 lU/mL with 5-fold dilution, 7 concentration points, and three duplicate wells (see Table 3 for compound concentration settings).
The medium was replaced with the fresh medium containing the compound on days 4, 6, 8, 10, 12, 14, 16, 18 and 20. On day 22, the culture supernatant was collected and cell viability was detected using CellTiter-Glo.
Cell culture supernatants on days 8, 14 and 22 were collected for HBV DNA, HBeAg and HBsAg detection.
HBV DNA detection: DNA in the supernatant was extracted according to the DNA extraction kit (Qiagen-51162), and HBV DNA in the sample was quantified by qPCR method, and the qPCR reaction system is shown in Table 6. HBV plasmid DNA was used as a standard for 10-fold serial dilution, and the standard range was from 1.0× 10^7 copies/µL to 10 copies/µL. The PCR reaction program was: Heating at 95° C. for 10 minutes, then cycle mode was entered, and heating at 95° C. for 15 seconds, then at 60° C. for 1 minute for a total of 40 cycles. The HBV DNA content in the samples was calculated based on the standard curve and the Ct value of each sample.
Detection of HBeAg and HBsAg: According to the instructions of ELISA kit, the levels of HBeAg and HBsAg in supernatant were detected. The method was briefly described as follows: 50 µL, of standard was taken, and sample and control sample were added into the detection plate, then 50 µL of enzyme conjugate was added to each well, incubated at 37° C. for 60 minutes, and washed with a washing solution and then dried, and then 50 µL of pre-mixed luminescent substrate was added and the mixture was incubated at room temperature for 10 minutes in the dark, and finally the luminescence value was measured by a microplate reader. The content of HBeAg and HBsAg in the sample was calculated according to the standard curve and the chemiluminescence value of each sample.
Inhibition rate %=(1- HBV DNA content or HBsAg content or HBeAg content in the sample/HBV DNA content or HBsAg content or HBeAg content in DMSO control group) × 100
CC50 and EC50 were calculated by GraphPad Prism software, and the inhibition curve fitting method was sigmoidal dose-response (variable slope).

[1] = administration before infection

In the case of peginterferon α 2a [Peg-IFNα-2a], the “EC50 (Day 8) HBV DNA” value (administration after infection) is reported as 0.81 IU/mL, the “EC50 (Day 8) HBeAg” value (administration after infection) is reported as 13.5 IU/mL and the “EC50 (Day 8) HBsAg” value (administration after infection) is reported as 42.76 IU/mL. The “EC50 (Day 8) HBV DNA” value [1] was 3.59 IU/mL, the “EC50 (Day 8) HBeAg” value [1] was 8.53 IU/mL and the “EC50 (Day 8) HBsAg” value [1] was 23.49 IU/mL.
